The structures appear in SMILES notation. Only a part is listed here, and it is no random draw. Measured potencies and affinities stand elsewhere. Activity calls are given as the source filed them. The rule behind the calls is not given here.

This assay in a line: BHK-21 cell toxicity, dose response, cytotoxicity control, plate reader, cherry-pick samples (AID 687030).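 Note: cells were exposed to compound for three days before reading.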 To be noted: BHK-21 cells; at 19.5 µM (top of the series).
Consider `CCOC(=O)c1ccc(NP(C)(=O)Oc2ccc(Cl)cc2)cc1` (stereo unspecified), for which the activity change, negative = toxicity was inactive: 1.66%.

The values above are taken from PubChem BioAssay AID687030 (Broad Institute, 2013).
